Experiments:
[1] = target: Kappa-type opioid receptor (Rattus norvegicus, UniProt P34975)
Mu-type opioid receptor = Mu-type opioid receptor (Rattus norvegicus, UniProt P33535)

Amino acid sequences for entries named in this document (tags omitted). A change or cut given only in a name is not applied to a line headed by its entry.
UniProt P34975: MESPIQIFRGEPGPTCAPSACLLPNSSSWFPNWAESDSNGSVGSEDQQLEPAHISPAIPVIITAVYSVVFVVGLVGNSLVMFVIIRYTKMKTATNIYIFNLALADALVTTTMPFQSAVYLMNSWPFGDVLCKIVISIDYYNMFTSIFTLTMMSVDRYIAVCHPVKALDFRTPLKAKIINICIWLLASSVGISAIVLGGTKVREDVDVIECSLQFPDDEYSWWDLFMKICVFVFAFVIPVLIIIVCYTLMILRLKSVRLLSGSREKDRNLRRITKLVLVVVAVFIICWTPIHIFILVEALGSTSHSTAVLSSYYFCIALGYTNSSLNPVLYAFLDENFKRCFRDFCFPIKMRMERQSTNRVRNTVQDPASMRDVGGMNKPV
UniProt P33535, whole entry: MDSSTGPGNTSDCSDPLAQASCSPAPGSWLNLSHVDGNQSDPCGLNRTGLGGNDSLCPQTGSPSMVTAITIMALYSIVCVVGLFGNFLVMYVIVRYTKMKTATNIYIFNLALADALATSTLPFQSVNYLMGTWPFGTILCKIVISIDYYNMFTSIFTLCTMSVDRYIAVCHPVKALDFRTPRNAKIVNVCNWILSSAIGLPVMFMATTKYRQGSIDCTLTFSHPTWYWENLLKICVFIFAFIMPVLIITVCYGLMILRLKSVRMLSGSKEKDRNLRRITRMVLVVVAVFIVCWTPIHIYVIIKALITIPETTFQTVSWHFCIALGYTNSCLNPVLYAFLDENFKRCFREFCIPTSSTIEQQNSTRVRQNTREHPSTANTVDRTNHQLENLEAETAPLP

For `COC12CC[C@H](NCC(=O)O)[C@@H]3Oc4c(O)ccc5c4[C@@]31CCN(C)C2C5` (stereo partly drawn) [2-[(4,5alpha-epoxy-3-hydroxy-14beta-methoxy-17-methylmorphinan-6alpha-yl)amino]acetic acid bis(tetrafluoroborate)], the Ki [1] was 43.2 nM and the Ki (Mu-type opioid receptor) was 0.89 nM.
`COC12CC[C@@H](NCC(=O)O)[C@@H]3Oc4c(O)ccc5c4[C@@]31CCN(C)C2C5` (stereo partly drawn) [2-[(4,5alpha-epoxy-3-hydroxy-14beta-methoxy-17-methylmorphinan-6beta-yl)amino]acetic acid bis(tetrafluoroborate)] gave a Ki [1] of 44.8 nM.
`COC12CC[C@H](N[C@H](C)C(=O)O)[C@@H]3Oc4c(O)ccc5c4[C@@]31CCN(C)C2C5` (stereo partly drawn) [(2S)-2-[4,5alpha-epoxy-3-hydroxy-14beta-methoxy-17-methylmorphinan-6alpha-yl)amino]propanoic acid bis(tetrafluoroborate)] was tested, and the Ki (Mu-type opioid receptor) was 0.77 nM.
With `COC12CC[C@@H](N[C@H](C)C(=O)O)[C@@H]3Oc4c(O)ccc5c4[C@@]31CCN(C)C2C5` (stereo partly drawn) [(2S)-2-[4,5alpha-epoxy-3-hydroxy-14beta-methoxy-17-methylmorphinan-6beta-yl)amino]propanoic acid bis(tetrafluoroborate)] the Ki (Mu-type opioid receptor) was 1.9 nM.

Source: BindingDB's records for doi:10.1016/j.ejphar.2003.10.049 (University of Innsbruck, 2004)
